SMILES strings stand for the structures. pKi: −log10 of the molar value.

Consider one compound from article PMC9299130 (Journal of Thrombosis and Haemostasis, 2021).

The test deals with rabbit thrombin (Oryctolagus cuniculus, UniProt Q28731). The test can be described thus: biochemical.

In the case of `C[C@@H]1CCC[C@H](n2cnc(-c3cc(Cl)ccc3-n3cc(Cl)nn3)cc2=O)c2cc(ccn2)-c2c(cnn2C(F)F)NC1=O` [milvexian], the pKi was 5.77.
